Assay results from the SangsterLogP compilation.

Assay: method code RP-HPLC, from DOI: 10.1021/jm030408h, PMID: 14971904

CC(=O)O[C@H]1C(=O)[C@@]2(C)[C@H]([C@H](OC(=O)c3ccccc3)[C@]3(O)C[C@H](OC(=O)[C@H](O)[C@@H](NC(=O)c4ccccc4)c4ccccc4)C(C)=C1C3(C)C)[C@]1(OC(C)=O)CO[C@@H]1C[C@@H]2O
logP: 4.5
